{"source": "patent US20170210787A1", "about": "(Janssen / Centocor, published 2017)", "key": {"[1]": {"biological_target": "T1, tau 186-253 (human, biotinylated)", "T1 peptide": "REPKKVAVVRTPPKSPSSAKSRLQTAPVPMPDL", "test": "peptide ELISA, 1 ug/mL"}, "[2]": {"biological_target": "T1, tau 186-253", "test": "ELISA on biotinylated peptide captured on streptavidin plate, IgG titrated [g]"}}, "data": [{"binder": "CBTAU-24.1 (antibody, V domains shown) VH: QVQLVQSGAEVKKPGASVKVSCTASGYTFTGYYLHWVRQAPGQGLEWMGWVNPRSGGTSYPPKFQGRVTMTRDTSINTAYMDLTWLTSDDTAVYYCAVGRIPDVTAFDIWGQGTPVTVSS VL: DIQMTQSPDSLAVSLGERATINCKSSESLLYDSNNKNYLAWYQQKPGQPPKLLIYWASTRESGVPDRFSGSGSETDFTLTISSLQAEDVAVYHCQQYFSTPWTFGQGTKLEIK", "values": [{"measurement": "OD450", "setting": "[1]", "result": "> 1.5", "unit": "od"}, {"measurement": "EC50 (read off the curve)", "setting": "[2]", "result": "~0.02", "unit": "µg/mL"}]}]}
